Biological target: the molecule itself
Experiment: native gel or EMSA; NativePAGE 3-12% Bis-Tris gel, 7.5 ug of recombinant protein per lane; oligomer profile from <480 to 1236 kDa, median size read against markers

B1: recombinant wild-type human αA-crystallin (natural protein, UniProt P02489 1-173, looked up)
chain: MDVTIQHPWFKRTLGPFYPSRLFDQFFGEGLFEYDLLPFLSSTISPYYRQSLFRTVLDSGISEVRSDRDKFVIFLDVKHFSPEDLTVKVQDDFVEIHGKHNERQDDHGYISREFHRRYRLPSNVDQSALSCSLSADGMLTFCGPKIQTGLDATHAERAIPVSREEKPTSAPSS
notes: αA-crystallin, human, cDNA in pET23d+; Polydisperse oligomer; purification follows Horwitz et al., 1999; also called WT; αA-WT; source: E. coli BL21(DE3) pLysS, purified (size exclusion chromatography; endotoxin removed with Triton X-114)
B1: binds.

From publication PMC8906792, “Evidence for Paracrine Protective Role of Exogenous αA-Crystallin in Retinal Ganglion Cells” (eNeuro, 2022)
